The values that follow are results of earlier work, collected in patent US7455840B2, “Compositions and methods to reduce mutagenesis” (priority 2003, dated 2008).

Protein sequences, listed by entry. Tags and fused reporters are not part of them.
UniProt P0A7C2, whole entry: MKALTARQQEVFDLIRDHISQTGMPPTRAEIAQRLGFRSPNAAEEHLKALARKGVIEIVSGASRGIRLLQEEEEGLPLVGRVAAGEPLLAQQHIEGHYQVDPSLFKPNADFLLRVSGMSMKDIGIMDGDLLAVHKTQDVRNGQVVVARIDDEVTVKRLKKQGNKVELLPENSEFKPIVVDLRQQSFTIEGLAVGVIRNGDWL

In this data set the target is LexA (Escherichia coli, UniProt P0A7C2). Particulars: Roland, J. Biol. Chem. (1990); cited from earlier work.

Some compounds may have been tested in ways that are not shown here.

As for `CC(C)OP(=O)(F)OC(C)C`, the “auto-cleavage of LexA” value was “inhibits”.
